# Results: ChEMBL document CHEMBL3526001, “Attenuation of intestinal absorption by major efflux transporters: quantitative tools and strategies using a Caco-2 model” (Drug Metab Dispos, 2011)
# Legend:
# Intestine = test: Ratio of intestine AUC in po dosed mdr1 knock out mouse to intestine AUC in po dosed wild type mouse; type: ADME, organism-based; settings: in vivo
# MDCK = test: Efflux ratio of permeability from basolateral to apical over apical to basolateral side of MDCK cells expressing MDR1; type: ADME, cell-based, Canis lupus familiaris; settings: dog
# P-gp = test: in vitro
Ratio AUC (Intestine),Ratio (MDCK),"efflux ratio at 2 h, 10 µM (P-gp)",SMILES
1.6,,,O=C(O)c1cn(C2CC2)c2cc(N3CCNCC3)c(F)cc2c1=O [CIPROFLOXACIN]
,3.1,,NS(=O)(=O)c1cc(C(=O)O)c(NCc2ccco2)cc1Cl [FUROSEMIDE]
17,,1.3,CC(=O)O[C@H]1C(=O)[C@@]2(C)[C@H]([C@H](OC(=O)c3ccccc3)[C@]3(O)C[C@H](OC(=O)[C@H](O)[C@@H](NC(=O)c4ccccc4)c4ccccc4)C(C)=C1C3(C)C)[C@]1(OC(C)=O)CO[C@@H]1C[C@@H]2O [PACLITAXEL]
